{
  "source": "patent US20240335465A1",
  "about": "(University of Virginia Patent Foundation, priority 2021, published 2024)",
  "tested_on": "DDR signaling",
  "test": "DDR signaling immunoblotting in THP1 cells",
  "conditions": "16 hours",
  "data": [
    {"smiles": "Nc1nc2c(ncn2[C@@H]2O[C@@H]3COP(=O)(O)O[C@H]4[C@@H](O)[C@H](n5cnc6c(N)ncnc65)O[C@@H]4COP(=O)(O)O[C@@H]2[C@@H]3O)c(=O)[nH]1", "note": "[cGAMP, cyclic guanosine monophosphate-adenosine monophosphate]", "values": [
      {"measurement": "phosphorylation of histone H2AX (γH2AX), ATM, and CHK2", "value": "induced phosphorylation of all these proteins"}
    ]}
  ]
}
